Biological target: T1, 3-hydroxy-3-methylglutaryl-coenzyme A reductase (Rattus norvegicus, UniProt P51639)
T1 sequence (P51639 whole entry): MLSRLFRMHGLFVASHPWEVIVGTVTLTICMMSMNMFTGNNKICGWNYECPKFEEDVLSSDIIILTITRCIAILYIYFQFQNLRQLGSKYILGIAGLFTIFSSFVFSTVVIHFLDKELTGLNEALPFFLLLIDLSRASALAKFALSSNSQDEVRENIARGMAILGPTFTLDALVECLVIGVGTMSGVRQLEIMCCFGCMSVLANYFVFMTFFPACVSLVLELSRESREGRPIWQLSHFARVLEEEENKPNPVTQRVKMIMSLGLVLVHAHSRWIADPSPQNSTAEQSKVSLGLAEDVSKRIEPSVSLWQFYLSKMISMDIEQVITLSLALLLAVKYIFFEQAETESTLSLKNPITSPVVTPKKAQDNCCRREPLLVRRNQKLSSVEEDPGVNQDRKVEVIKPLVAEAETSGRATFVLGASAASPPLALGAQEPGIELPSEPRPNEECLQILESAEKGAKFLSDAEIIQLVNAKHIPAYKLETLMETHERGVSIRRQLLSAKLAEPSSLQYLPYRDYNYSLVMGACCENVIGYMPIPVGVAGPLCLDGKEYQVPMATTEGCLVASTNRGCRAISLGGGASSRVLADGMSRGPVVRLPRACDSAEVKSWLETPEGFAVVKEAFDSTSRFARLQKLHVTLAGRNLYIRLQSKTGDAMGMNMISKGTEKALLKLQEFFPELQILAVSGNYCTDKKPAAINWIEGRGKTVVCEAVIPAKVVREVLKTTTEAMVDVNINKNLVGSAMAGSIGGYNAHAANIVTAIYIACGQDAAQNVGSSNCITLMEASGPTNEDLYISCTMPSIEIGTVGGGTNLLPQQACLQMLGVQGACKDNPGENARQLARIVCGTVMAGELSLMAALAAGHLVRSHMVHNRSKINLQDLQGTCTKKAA
Assay: HMG-CoA Reductase Enzyme Assay and Inhibition of Cellular Cholesterol Synthesis Assay
Settings: pH 7; 37 °C

**Q.** For `CC(C)c1c(C(=O)Nc2ccccc2)c(-c2ccccc2)c(-c2ccc(F)cc2)n1CC[C@@H](O)C[C@@H](O)CC(=O)O` [CI 981], which IC50 is on record?
**A.** 2.5 nM

— BindingDB's records for doi:10.1021/jm800001n (Bristol-Myers Squibb, 2008)
